The numbers were not newly measured in patent US20190388350A1, “FORMULATION” (priority 2018, published 2019), which cites them from elsewhere.

What is called pKa is the pH at which an ionisable group is half protonated.

Where a name gives a salt, the structure may show the parent alone.

Turning to `CNCC[C@H](Oc1cccc2ccccc12)c1cccs1` [duloxetine hydrochloride], the pKa is given as 9.7.
